Publication PMC5355811 (Nature Communications, 2017)

Experiments:
Type in all cases: cell-based
[1] = test system: Ba/F3 cells expressing EGFR-C797S/L858R; assay: CellTiter-Glo cell viability assay, Ba/F3 EGFR-C797S/L858R; conditions: Mus musculus
[2] = test system: Ba/F3 cells of EGFR-C797S/del19; assay: Drug sensitivity screening at 100 nM, Ba/F3 EGFR-C797S/del19; conditions: for viability at 0.1 µM: Mus musculus, BaF3, 72 h, read-out: Relative cell viability (ratio to DMSO control), del19/C797S; for Cell inhibition rate relative to DMSO in C797S/del19 Ba/F3 cells: 100 nM
[3] = test system: phosphorylation of EGFR in Ba/F3 cells expressing EGFR-C797S/T790M/L858R; assay: Western blotting of EGFR signalling, Ba/F3 triple-L858R; conditions: 6 h, up to 1000 nM
[4] = test system: Ba/F3 cells of EGFR-C797S/T790M/del19; assay: Drug sensitivity screening at 100 nM, Ba/F3 EGFR-C797S/T790M/del19; conditions: for viability at 0.1 µM: Mus musculus, BaF3, 72 h, read-out: Relative cell viability (ratio to DMSO control), del19/T790M/C797S; for Cell inhibition rate relative to DMSO in C797S/T790M/del19 Ba/F3 cells: 100 nM
[5] = test system: Ba/F3 cells expressing EGFR-C797S/del19; assay: CellTiter-Glo cell viability assay, Ba/F3 EGFR-C797S/del19; conditions: Mus musculus, BaF3; Table 1a; 72 h
[6] = 100 nM inhibitor, 72 h, DMSO = 100, mean of three independent experiments (Fig. 1a data)

IC50 ([1]; BaF3, 72 h, read-out: IC50, Ba/F3 C797S/L858R): 0.298 µM
Structure (SMILES): COc1cc(N2CCC(N3CCN(C)CC3)CC2)ccc1Nc1ncc(Cl)c(Nc2ccccc2P(C)(C)=O)n1 [Brigatinib, brigatinib]
viability at 0.1 µM [2, 6]: 5.64% | phosphorylation of EGFR and downstream signal pathway, Ba/F3 C797S/T790M/L858R [3]: inhibited the phosphorylation of EGFR

Structure (SMILES): CS(=O)(=O)CCNCc1ccc(-c2ccc3ncnc(Nc4ccc(OCc5cccc(F)c5)c(Cl)c4)c3c2)o1 [Lapatinib, lapatinib]
viability at 0.1 µM [4]: 136%

Structure (SMILES): Nc1ncnc2c1c(-c1cccc(OCc3ccccc3)c1)cn2[C@H]1C[C@@H](CN2CCC2)C1 [AEW541]
Cell inhibition rate relative to DMSO in C797S/T790M/del19 Ba/F3 cells ([4]; 72 h, DMSO = 100, experiment 2): 133.665 | Cell inhibition rate relative to DMSO in C797S/T790M/del19 Ba/F3 cells ([4]; 72 h, DMSO = 100, experiment 3): 138.399

Structure (SMILES): COc1cc2nccc(Oc3ccc(NC(=O)NC4CC4)c(Cl)c3)c2cc1C(N)=O [E7080]
Relative cell viability (ratio to DMSO control), del19/C797S [2, 6]: 104.33 and 104.333 | Cell inhibition rate relative to DMSO in C797S/del19 Ba/F3 cells ([2]; 72 h, DMSO = 100, experiment 1): 95.2987 | Cell inhibition rate relative to DMSO in C797S/del19 Ba/F3 cells ([2]; 72 h, DMSO = 100, experiment 2): 100.841 | Cell inhibition rate relative to DMSO in C797S/del19 Ba/F3 cells ([2]; 72 h, DMSO = 100, experiment 3): 116.859 | Relative cell viability (ratio to DMSO control), del19/T790M/C797S [4, 6]: 144.87 and 144.865 | Cell inhibition rate relative to DMSO in C797S/T790M/del19 Ba/F3 cells ([4]; 72 h, DMSO = 100, experiment 1): 132.448 | Cell inhibition rate relative to DMSO in C797S/T790M/del19 Ba/F3 cells ([4]; 72 h, DMSO = 100, experiment 2): 155.081 | Cell inhibition rate relative to DMSO in C797S/T790M/del19 Ba/F3 cells ([4]; 72 h, DMSO = 100, experiment 3): 147.066

IC50 ([1]; BaF3, Supplementary Fig. 8e, 72 h, read-out: IC50, Ba/F3 C797S/L858R): 0.108 µM
Structure (SMILES): COc1cc(N2CCC(N(C)C)CC2)ccc1Nc1ncc(Cl)c(Nc2ccccc2P(C)(C)=O)n1 [AP26113-analog]
phosphorylation of EGFR and downstream signal pathway, Ba/F3 C797S/T790M/L858R [3]: inhibited the phosphorylation of EGFR

Structure (SMILES): C=CC(=O)Nc1cc(Nc2nccc(-c3cn(C)c4ccccc34)n2)c(OC)cc1N(C)CCN(C)C [Osimertinib, osimertinib]
viability at 0.1 µM [2]: 95.8% | viability at 0.1 µM [4]: 134%

Structure (SMILES): Cc1cc(Nc2ncc(Cl)c(Nc3ccccc3S(=O)(=O)C(C)C)n2)c(OC(C)C)cc1C1CCNCC1 [Ceritinib, ceritinib]
phosphorylation of EGFR and downstream signal pathway, Ba/F3 C797S/T790M/L858R [3]: didn’t suppress the signals

Structure (SMILES): Cc1ccc(C(=O)Nc2ccc(CN3CCN(C)CC3)c(C(F)(F)F)c2)cc1C#Cc1cnc2cccnn12 [Ponatinib, ponatinib]
viability at 0.1 µM [2]: 42.7% | viability at 0.1 µM [4]: 53.9%

Structure (SMILES): CO[C@H]1C[C@@H]2CC[C@@H](C)[C@@](O)(O2)C(=O)C(=O)N2CCCC[C@H]2C(=O)O[C@H]([C@H](C)C[C@@H]2CC[C@@H](O)[C@H](OC)C2)CC(=O)[C@H](C)/C=C(\C)[C@@H](O)[C@@H](OC)C(=O)[C@H](C)C[C@H](C)/C=C/C=C/C=C/1C [Rapamycin, rapamycin]
Cell inhibition rate relative to DMSO in C797S/del19 Ba/F3 cells ([2]; 72 h, DMSO = 100, experiment 1): 54.2787 | Cell inhibition rate relative to DMSO in C797S/T790M/del19 Ba/F3 cells ([4]; 72 h, DMSO = 100, experiment 2): 29.6091

Structure (SMILES): C[C@]12O[C@H](C[C@]1(O)CO)n1c3ccccc3c3c4c(c5c6ccccc6n2c5c31)CNC4=O [CEP701]
viability at 0.1 µM [4]: 16.6%

IC50 [5]: 1.24 µM | IC50 ([1]; BaF3, Table 1b, 72 h, read-out: IC50, Ba/F3-EGFR-C797S/L858R): 1.66 µM
Structure (SMILES): Cc1cc(C(=O)Nc2nc3cccc(Cl)c3n2[C@@H]2CCCCN(C(=O)/C=C/CN(C)C)C2)ccn1 [EGF-816]

Structure (SMILES): CS(=O)(=O)N1CCN(Cc2cc3nc(-c4cccc5[nH]ncc45)nc(N4CCOCC4)c3s2)CC1 [GDC0941]
Cell inhibition rate relative to DMSO in C797S/T790M/del19 Ba/F3 cells ([4]; 72 h, DMSO = 100, experiment 2): 69.7443 | Cell inhibition rate relative to DMSO in C797S/T790M/del19 Ba/F3 cells ([4]; 72 h, DMSO = 100, experiment 3): 72.0059

Values joined by “and” are separate entries in the source; they are usually repeats but may differ in a detail not shown here. Equal entries are not always repeated. Where two headings read alike, the source gives them in different places. Each block holds one compound with its values, some of them ahead of it.
